From PubChem BioAssay AID797 (University of Pittsburgh Molecular Library Screening Center, 2007)
Only a part is listed here, and it is no random draw. The source made the active and inactive calls. Cut-off read from the data, not from the text of the source: active = inhibition above about 50%; inactive = the rest.

Sequences of proteins named here, by UniProt entry; tags and fusion partners are left off.
UniProt Q15139, whole entry: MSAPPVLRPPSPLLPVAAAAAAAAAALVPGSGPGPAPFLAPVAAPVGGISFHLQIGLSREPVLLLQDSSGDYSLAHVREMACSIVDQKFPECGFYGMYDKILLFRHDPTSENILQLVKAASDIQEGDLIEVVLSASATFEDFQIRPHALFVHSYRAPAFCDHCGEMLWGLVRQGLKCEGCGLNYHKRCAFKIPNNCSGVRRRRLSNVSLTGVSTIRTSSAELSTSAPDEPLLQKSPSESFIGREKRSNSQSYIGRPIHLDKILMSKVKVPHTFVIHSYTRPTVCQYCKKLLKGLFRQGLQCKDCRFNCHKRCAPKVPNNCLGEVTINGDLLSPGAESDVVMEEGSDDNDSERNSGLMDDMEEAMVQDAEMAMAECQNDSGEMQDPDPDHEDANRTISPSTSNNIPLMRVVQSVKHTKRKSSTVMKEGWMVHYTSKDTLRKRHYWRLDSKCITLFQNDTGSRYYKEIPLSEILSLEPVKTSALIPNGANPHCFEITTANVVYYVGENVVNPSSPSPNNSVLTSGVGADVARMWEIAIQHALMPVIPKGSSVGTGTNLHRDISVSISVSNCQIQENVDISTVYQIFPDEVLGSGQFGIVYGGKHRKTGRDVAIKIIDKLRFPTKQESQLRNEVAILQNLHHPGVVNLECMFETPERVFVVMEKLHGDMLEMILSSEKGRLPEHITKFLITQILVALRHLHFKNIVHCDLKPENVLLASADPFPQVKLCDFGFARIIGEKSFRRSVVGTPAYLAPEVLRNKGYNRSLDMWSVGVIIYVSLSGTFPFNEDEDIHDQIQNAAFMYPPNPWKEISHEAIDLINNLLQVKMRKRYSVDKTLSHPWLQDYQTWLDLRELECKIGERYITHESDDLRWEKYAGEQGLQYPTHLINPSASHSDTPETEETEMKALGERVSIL

molecular target: Serine/threonine-protein kinase D1 (Homo sapiens) (UniProt Q15139); test: inhibitors of human PKD1 kinase, biochemical, fluorescence polarization (AID 797); conditions: PKD1 kinase fluorescence polarization assay; stronger effect = higher value; concentration not given here

Row | Structure (SMILES) | inhibition
1 | CP(=S)(Nn1cnnc1)Oc1ccccc1 (stereo not given) | inactive: 1.88%
2 | CP(=O)(Nc1ccccc1Br)Oc1ccccc1 (stereo not given) | inactive: 1.24%
3 | COc1ccccc1OP(C)(=O)Nc1ccccc1 (stereo not given) | inactive: -5.4%
4 | O=P(Nc1ccccn1)(c1cccc2ccccc12)c1cccc2ccccc12 | inactive: 1.78%
5 | Cc1cc(SC(NC=O)C(Cl)(Cl)Cl)ncn1 (stereo not given) | inactive: -4.7%
6 | Cc1cc(SC(NC(=O)c2ccccc2)C(Cl)(Cl)Cl)nc(C(C)C)n1 (stereo not given) | inactive: 2.98%
7 | CCOC(=O)c1ccc(NP(C)(=O)Oc2ccc(OC)cc2)cc1 (stereo not given) | inactive: 10.3%
8 | CCOP(C)(=S)SCC(=O)NC(C)C(=O)O (stereo not given) | inactive: -4.26%
9 | CP(=O)(Nc1ccccn1)Oc1ccc(Cl)cc1 (stereo not given) | inactive: -4.7%
10 | CCC(C)N(CC(C)C)C(=S)SC(NC(C)=O)C(Cl)(Cl)Cl (stereo not given) | inactive: 0.95%
11 | CP(=O)(Oc1ccccc1)OC(c1ccccc1)C(F)(F)F (stereo not given) | inactive: -0.76%
12 | COP1(=S)c2c(C)nn(CCC#N)c2N=C(c2ccc(F)cc2)N1C (stereo not given) | inactive: -5.02%
13 | Cc1cccc(C)c1OP(C)(=O)Nc1ccc(SC(F)(F)F)cc1 (stereo not given) | inactive: -4.35%
14 | Cc1cc(C)cc(OP(C)(=O)Nc2ccc(SC(F)(F)F)cc2)c1 (stereo not given) | inactive: -10.9%
15 | O=C(COc1ccccc1)OC1CN2CCC1CC2 (stereo not given) | inactive: -0.91%
16 | CP(=O)(NC(=O)Nc1ccccc1)Oc1ccccc1 (stereo not given) | inactive: -14.3%
17 | COc1ccc(N/C(=N/P(=O)(N2CCOCC2)N2CCOCC2)N2CCOCC2)cc1 | inactive: -0.54%
18 | CCN(CC)CCCOC(=O)C(O)(c1ccccc1)c1ccccc1 | inactive: 9.21%
19 | Cc1cc(=O)[nH]c(N[N+](=O)[O-])n1 | inactive: -3.83%
20 | O=C(OC1CN2CCC1CC2)C12CC3CC(CC(C3)C1)C2 (stereo not given) | inactive: 20.8%
21 | Cc1c2c(nc3ccccc13)SC(C(Cl)Cl)C2 (stereo not given) | inactive: -9.02%
22 | COc1ccc2nc(NP(=O)(c3ccccc3)c3ccccc3)sc2c1 | inactive: -8.69%
23 | Cc1ccc(NP(C)(=O)Oc2ccccc2)c(C)c1 (stereo not given) | inactive: -12%
24 | COc1ccccc1OP(C)(=O)Nc1ccc(C)cc1 (stereo not given) | inactive: -9.68%
25 | ClCCSc1nnc(-c2cccnc2)o1 | inactive: -9.63%

Row | Structure (SMILES) | inhibition
26 | CCOC(=O)c1ccc(NP(C)(=O)Oc2ccccc2)cc1 (stereo not given) | inactive: -8.42%
27 | Cc1cc(C)cc(OP(C)(N)=O)c1 (stereo not given) | inactive: -0.3%
28 | COc1ccc(OP(C)(=O)Nc2cccc(F)c2)cc1 (stereo not given) | inactive: -4.29%
29 | O=[N+]([O-])c1cc([N+](=O)[O-])c(-c2ccn[nH]2)s1 | inactive: -1.39%
30 | COc1ccccc1OP(C)(=O)Nc1cc(Cl)ccc1C (stereo not given) | inactive: -7.92%
31 | CC(C)NC(=O)NP(=O)(Oc1ccccc1)Oc1ccccc1 | inactive: 2.37%
32 | CCN(CC)C(=S)SC(NC=O)C(Cl)(Cl)Cl (stereo not given) | inactive: 9.63%
33 | O=[N+]([O-])c1ccc2c(c1)C=Nc1ccccc1O2 | inactive: -1.87%
34 | Cc1ccc2nc3c(c(C)c2c1)CC(C(Cl)Cl)S3 (stereo not given) | inactive: -4.18%
35 | Cc1cccc(C)c1OP(C)(N)=O (stereo not given) | inactive: -2.41%
36 | CC(C)(C)c1ccc(OP(C)(=O)Nc2ccc(SC(F)(F)F)cc2)cc1 (stereo not given) | inactive: 6.73%
37 | CC1=NCCc2c1[nH]c1ccccc21.O=[N+]([O-])c1cc([N+](=O)[O-])c(O)c([N+](=O)[O-])c1 | inactive: -1.57%
38 | O=[N+]([O-])c1ccc2c(c1)nnn2O | inactive: 4.42%
39 | CCOP1(=S)c2c(C)nn(CCC#N)c2N=C(c2ccc(F)cc2)N1C (stereo not given) | inactive: -2.7%
40 | O=P(Nc1nccs1)(Oc1ccccc1)Oc1ccccc1 | inactive: 1.41%
41 | O=P(Nc1nccs1)(c1ccccc1)c1nc2ccccc2s1 (stereo not given) | inactive: -11.4%
42 | CCOP1(=S)c2c(C)nn(CCC#N)c2N=C(c2ccccc2F)N1C (stereo not given) | inactive: -10.5%
43 | Cc1ccc(C)c(NP(C)(=O)Oc2ccccc2)c1 (stereo not given) | inactive: -7.74%
44 | Cc1ccc(NCCc2c([N+](=O)[O-])cc([N+](=O)[O-])cc2[N+](=O)[O-])cc1 | inactive: -6.12%
45 | Cc1cc(C)cc(OP(C)(=O)Nc2ccccn2)c1 (stereo not given) | inactive: -0.75%
46 | CP(=O)(Nc1cccc(Br)c1)Oc1ccccc1 (stereo not given) | inactive: 2.89%
47 | CCOP(=O)(Nc1cccc2ccccc12)OCC | inactive: -7.21%
48 | COc1cc(C(=O)NCC2(N3CCOCC3)CCCCC2)cc(Cl)c1OC(C)C | inactive: 0.06%
49 | CCOC(=O)c1ccc(NP(C)(=O)Oc2cc(C)cc(C)c2)cc1 (stereo not given) | inactive: -13.8%
50 | Cc1cc(C)cc(OP(C)(=O)Nc2ccc(C)cc2C)c1 (stereo not given) | inactive: 0.91%
